Target: T1, 5-hydroxytryptamine receptor 2C (Rattus norvegicus, UniProt P08909)
T1 sequence (P08909 whole entry): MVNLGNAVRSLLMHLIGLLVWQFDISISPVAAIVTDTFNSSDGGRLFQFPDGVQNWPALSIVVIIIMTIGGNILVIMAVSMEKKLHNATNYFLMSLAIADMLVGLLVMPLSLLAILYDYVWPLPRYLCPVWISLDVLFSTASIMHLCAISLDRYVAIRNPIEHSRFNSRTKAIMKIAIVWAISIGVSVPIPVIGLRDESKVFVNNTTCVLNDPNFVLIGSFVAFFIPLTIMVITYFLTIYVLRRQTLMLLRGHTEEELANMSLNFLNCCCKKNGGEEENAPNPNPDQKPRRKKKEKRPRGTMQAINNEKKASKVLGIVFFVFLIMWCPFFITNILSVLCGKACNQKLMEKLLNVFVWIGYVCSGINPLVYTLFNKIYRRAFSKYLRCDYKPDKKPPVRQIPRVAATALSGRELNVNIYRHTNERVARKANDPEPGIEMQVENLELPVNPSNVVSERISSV
Experiment: Ability to displace [3H]mesulergine bound to 5-hydroxytryptamine 2C receptor in rat cortex
Format: tissue-based
Summary of the method: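 Cortical membranes from male Wistar rats in 50 mM Tris HCl pH 7.7 with 10 μM pargyline, 4 mM CaCl2 and 0.1% ascorbic acid. […] Nonspecific binding with 1 μM mianserine. Filtration assay. Ki from IC50 via Cheng-Prusoff. Mean ± SEM, n=3.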

CN1C[C@@H](NS(=O)(=O)N(C)C)C[C@@H]2c3cccc4c3c(cn4C)C[C@H]21 [MESULERGINE]
Ki: 0.73 nM

Source: ChEMBL document CHEMBL1131485, “Novel potent and selective central 5-HT3 receptor ligands provided with different intrinsic efficacy. 1. Mapping the central 5-HT3 receptor binding site by arylpiperazine derivatives” (J Med Chem, 1998)
